In assay [1] the target is fully post-translationally modified (farnesylated and methylated) hypervariable region peptide of K-Ras4B (human). Briefly: ITC; CaM in the syringe titrated into the peptide (FM-HVR or HVR) in the 1.4 mL cell; 25 °C; 50 mM Tris-citrate pH 6.5, 50 mM NaCl, 5 mM MgCl2, 1 mM TCEP, 10 mM CaCl2; 1 mM CaM into 70 µM HVR, 33 µM CaM into 2.9 µM FM-HVR; one set of binding sites model. On the technique in general: ITC needs no label: the signal is the heat of the interaction.

Assay [2] deals with hypervariable region (HVR) peptide of K-Ras4B, non-modified (human). The assay is described as above.

A word on the Kd: it is the concentration at which binding is half-saturated. The low end stands for tighter binding, the high end for weaker binding.

As to “calmodulin (from UniProt P0DP23 2-149) (natural protein)”, in assay [1], the Kd is 350 nM and the dH was -14.9 kcal/mol. The substance further returned a dH in assay [2] of 0.65 kcal/mol.
